Measured affinities in a library of Ab-14 light chain variants

The measurements come from Engelhart et al. 2022 (doi:10.1038/s41597-022-01779-4) through the FLAb antibody collection.

The target is the same throughout: PDVDLGDISGINAS, from the HR2 region of SARS-CoV-2 spike.

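The parent was found by panning a naive human phage display library on the peptide. The library (AAYL50) carries one to three amino acid substitutions per variant, with no insertions or deletions. The assay is AlphaSeq: two haploid yeast populations carry antibody and antigen on their surface. After mating in shaken culture at 30 °C for 16 h, diploids were selected and their barcode pairs sequenced. A regression on co-assayed BCL2-family reference pairs converts the normalised counts of each replicate to an apparent Kd. Mating was done three times.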

Parent scFv Ab-14: VH joined to VL by the linker GGGGSGGGGSGGGGS. Changes lie in the light chain CDRs alone.
VH: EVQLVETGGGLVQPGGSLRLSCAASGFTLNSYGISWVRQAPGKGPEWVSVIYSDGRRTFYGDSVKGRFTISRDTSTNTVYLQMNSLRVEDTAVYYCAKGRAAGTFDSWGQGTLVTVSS
VL: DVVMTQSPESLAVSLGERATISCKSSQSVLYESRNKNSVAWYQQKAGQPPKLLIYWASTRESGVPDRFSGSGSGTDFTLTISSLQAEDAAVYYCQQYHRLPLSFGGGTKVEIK

Positions count from residue 1 of the parent VL; S58I puts I in place of S. Values are log10 of the apparent Kd in nM; lower means stronger binding. Averages over replicates are reported, and they cover detected replicates only. "n.d." marks a missing value. The strain was present, yet no cells mated with the target were sequenced in that replicate, which points to weak or no binding.

changes,log10 Kd (nM) by replicate,"log10 Kd (nM), mean",control signals
S58I/R60E/Q96W,n.d. / n.d. / 5.05,5.05,3 of 9 (4.32)
Y97N/H98N/R99E,n.d. / n.d. / n.d.,n.d.,0 of 9
Q95L/Y97F/L102Q,4.85 / 3.27 / 4.58,4.23,1 of 9 (4.37)
K24N/V39S/L100Q,n.d. / n.d. / n.d.,n.d.,1 of 9 (3.61)
Q27H/E32A/S38G,n.d. / n.d. / n.d.,n.d.,1 of 9 (3.18)
E32V/S38N/Q96P,2.22 / 2.44 / 2.30,2.32,4 of 9 (4.40)
S33P/R34G/L100D,1.28 / 1.43 / 1.27,1.33,0 of 9
V29T/E32R,n.d. / n.d. / n.d.,n.d.,1 of 9 (3.88)
S25W/Q27L/S28H,n.d. / 4.34 / 4.45,4.39,0 of 9
K24S/Y97T/L102C,n.d. / n.d. / 6.24,6.24,2 of 9 (3.64)
S25G/S26Q/L102C,0.63 / 0.90 / 0.88,0.80,2 of 9 (4.54)
N35S/E61R/Y97D,n.d. / n.d. / n.d.,n.d.,0 of 9
S26G/T59Y/L100R,n.d. / 3.90 / n.d.,3.90,2 of 9 (4.16)
K36T/Q96E/S103V,2.22 / 1.97 / 2.48,2.22,2 of 9 (4.86)
E32G/W56Q/Q96C,0.52 / 0.83 / 0.76,0.70,1 of 9 (5.87)
S26E/L30D/S58H,1.35 / 1.26 / 1.47,1.36,2 of 9 (4.67)
K24H/A40Y/R60L,n.d. / n.d. / 3.85,3.85,0 of 9
S58P/Y97I/L102T,n.d. / 3.96 / n.d.,3.96,3 of 9 (3.71)
E32L/S38L/L102P,n.d. / n.d. / n.d.,n.d.,0 of 9
K24L/L30S/S58R,3.44 / 2.95 / 3.08,3.16,3 of 9 (4.22)
K24C/S26K/H98E,1.97 / 1.87 / n.d.,1.92,0 of 9
W56F/T59C/S62A,n.d. / n.d. / n.d.,n.d.,1 of 9 (2.92)
Y31F/T59P/Q96I,5.07 / n.d. / n.d.,5.07,1 of 9 (3.10)
R34V/Q95E/P101D,1.85 / 1.34 / 1.76,1.65,1 of 9 (4.24)
S58I/Y97S,n.d. / 2.94 / n.d.,2.94,1 of 9 (3.97)
R34F/K36A/N37L,2.42 / 2.52 / 4.73,3.22,0 of 9
S26I/S28Y/T59C,2.36 / 2.42 / 2.68,2.49,0 of 9
Y31K/N37L/A40F,n.d. / n.d. / 3.90,3.90,1 of 9 (3.71)
K24C/V29P/H98P,n.d. / n.d. / 3.61,3.61,4 of 9 (5.17)
Q27Y/K36C/A57V,3.38 / 2.61 / 3.28,3.09,4 of 9 (4.20)
S28L/S62K/L102F,1.68 / 2.00 / 1.70,1.79,3 of 9 (3.96)
L30V/E32V/R34T,1.20 / 1.46 / 1.21,1.29,1 of 9 (4.71)
Q27E/L102V,n.d. / 5.33 / n.d.,5.33,3 of 9 (4.90)
S28I/A57Q/S62R,n.d. / 3.18 / 5.24,4.21,5 of 9 (4.46)
T59S/Q96A/L102R,n.d. / n.d. / n.d.,n.d.,0 of 9
E32W/S38K/Q95N,n.d. / n.d. / n.d.,n.d.,2 of 9 (4.52)
R34D/N35A/S103L,5.18 / n.d. / n.d.,5.18,4 of 9 (5.03)
L30G/R60S/L102I,n.d. / 3.94 / n.d.,3.94,1 of 9 (4.34)
S25W/R34F/A57H,3.35 / n.d. / n.d.,3.35,1 of 9 (4.13)
Q27C/R34M/H98I,0.92 / 1.10 / 1.03,1.02,0 of 9
Q27I/R34M,0.34 / 0.61 / 0.49,0.48,1 of 9 (4.16)
A40F/Y97T/H98R,n.d. / n.d. / n.d.,n.d.,0 of 9
Y31H/E32L,1.51 / 1.97 / 1.48,1.66,2 of 9 (3.50)
N37H/E61F/Q96E,2.21 / 2.59 / 2.03,2.28,0 of 9
K36T/N37T/R60W,1.58 / 1.48 / 1.87,1.64,0 of 9
E32H/A57K/P101M,n.d. / n.d. / n.d.,n.d.,0 of 9
L30T/A40S/R99I,3.31 / 2.79 / 3.37,3.16,5 of 9 (4.08)
T59G/P101T,1.17 / 1.21 / 1.13,1.17,0 of 9
N37Q/S62N/R99Q,1.78 / 1.29 / 1.21,1.43,0 of 9
S25D/N37H/Q95E,1.57 / 1.58 / 1.76,1.64,2 of 9 (4.56)
Q27Y/Q95T/R99H,2.81 / 2.44 / 2.51,2.59,0 of 9

The last 6 entries again:

changes,log10 Kd (nM) by replicate,"log10 Kd (nM), mean",control signals
E32H/A57K/P101M,n.d. / n.d. / n.d.,n.d.,0 of 9
L30T/A40S/R99I,3.31 / 2.79 / 3.37,3.16,5 of 9 (4.08)
T59G/P101T,1.17 / 1.21 / 1.13,1.17,0 of 9
N37Q/S62N/R99Q,1.78 / 1.29 / 1.21,1.43,0 of 9
S25D/N37H/Q95E,1.57 / 1.58 / 1.76,1.64,2 of 9 (4.56)
Q27Y/Q95T/R99H,2.81 / 2.44 / 2.51,2.59,0 of 9

Three control strains display no target. For library AAYL50, 18% of the pairings with them gave a signal, with a median of 4.19 and one signal in twenty below 2.99, so weak values seen in few replicates may be background. For each scFv, signals with the empty controls are counted beside the result, with their mean in brackets. Parent in this assay: reference entry 0.65, copy in this library 1.68.